Experimental data from patent US10118915B2, “Kappa opioid ligands” (The Scripps Research Institute, priority 2012, dated 2018).

Sequences of proteins named here, by UniProt entry; tags and fusion partners are left off. A change or cut given only in a name is not applied to a line headed by its entry.
UniProt P41145: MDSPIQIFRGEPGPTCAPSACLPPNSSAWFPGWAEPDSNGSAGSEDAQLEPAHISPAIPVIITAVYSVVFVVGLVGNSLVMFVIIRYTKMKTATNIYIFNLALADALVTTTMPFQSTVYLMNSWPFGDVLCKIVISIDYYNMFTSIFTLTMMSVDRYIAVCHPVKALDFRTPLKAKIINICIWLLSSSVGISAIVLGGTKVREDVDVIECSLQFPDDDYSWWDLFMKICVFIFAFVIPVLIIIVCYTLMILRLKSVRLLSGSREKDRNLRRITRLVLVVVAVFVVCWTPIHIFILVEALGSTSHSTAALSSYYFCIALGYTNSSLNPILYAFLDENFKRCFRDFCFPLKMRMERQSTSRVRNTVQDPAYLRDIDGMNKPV

Molecular target: kappa opioid receptor (OPRK1) (Homo sapiens (Human), UniProt P41145)
Assay: OPRK1 antagonist assay (b-arrestin-2-TEV protease / b-lactamase reporter cell line, EC80 challenge of U-50488)
Format: cell-based
Conditions: antagonist mode vs EC80 U-50488

| Compound | IC50 |
| --- | --- |
| CCC1CN(c2nnc(C)cc2-c2nc(C)no2)CCC1NC1CCCCC1 (stereo not drawn) [compound 185] | 24 nM |
| Cc1cc(C(=O)OC(C)C)c(N2CCC(NC3CCCCC3)CC2)nn1 [compound 385] | 1 nM |
| Cc1cc(C(=O)OC(C)C)c(N2CCC(NC3CCOCC3)CC2)nn1 [compound 409] | 129 nM |
